ARNT TACC3 PPI = disruptors of ARNT/TACC3 protein interaction, primary screen, biochemical, AlphaScreen, single concentration; AlphaScreen His-ARNT PAS-B/GST-TACC3 binding, luminescence; TACC3 fragment carries E629A point mutation; inhibition, % at 9.99 µM; hit rate 0.66% among 390,000; AID 623870, 2012;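 active means mean inhibition of replicates at least 50% and at least half of replicates each reaching 50%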;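 further: 0% = complete ARNT plus TACC3 wells and 100% = ARNT alone without TACC3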
MLL AF4-AF9 inh = inhibitors of AF4 peptide binding to AF9, primary screen, biochemical, AlphaScreen, biotin-AF4 peptide, FLAG-AF9, single point; inhibition, % at 10 µM; hit rate 0.47% among 350,000;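 active means every replicate reaching a set inhibition limit, whatever the replicate mean, cut at about 25% in these data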;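 further: 0% = plate neutral control median and 100% = total signal loss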
UUG fidelity = yeast start codon fidelity modulation | S. cerevisiae UUG-firefly luciferase reporter, luminescence/redox ratio | activity score, % at 18.7 µM | hit rate 0.13% among 350,000 | AID 602363;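 active means replicate mean at a twofold rise or more, about +100% in these data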;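 further: firefly luciferase made from a UUG start codon reports start codon fidelity; reporter light over untreated wells divided by growth signal over untreated wells; some hits fall short of that in this replicate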
S100A4 MyoIIA = inhibitors of S100A4-myosin IIA peptide binding, primary screen, biochemical, fluorescence polarization, TAMRA-MyoIIA peptide. inhibition, % at 10.7 µM. AID 652163, 2013. Protein S100-A4 (Homo sapiens), P26447. hit rate 0.14% among 360,000;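 active means mean inhibition of at least 70% across replicates, with every replicate also reaching that level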
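Material: S100A4 monomer protein | Medium: HEPES pH 7.2 with CaCl2, KCl, NaCl, DTT, Triton | Reagent: Labelled myosin peptide probe, 5 nM | Doses: One dose per compound | Times: 5 min incubation before reading | Benchmarks: Neutral control DMSO, positive control TFP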
E-selectin induc = E-selectin induction in HUVECs, primary screen, imaging, HUVEC, immunofluorescence imaging, single point; P16581; normalized: neutral wells 0, TNF-alpha wells 100; activation, % at 7.58 µM; hit rate 0.37% among 260,000; AID 686992, 2013;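 active means mean E-selectin-positive cell signal at least 10% of the positive control, reached in at least 60% of replicates, without over 20% cell loss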
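Material: HUVEC primary endothelial cells; Amount: 3,000 cells per well; Dosing: single concentration; Medium: EGM-2 growth medium on 0.1% gelatin-coated wells; Read-out basis: percent E-selectin-positive cells; Signal: immunofluorescence imaging; Control set: TNF-alpha, DMSO.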
ERAP1 inh = human ERAP1 aminopeptidase inhibitors, primary screen, biochemical, single point, plate reader; AID 652197, 2013; inhibition, % at 10.7 µM; Endoplasmic reticulum aminopeptidase 1 (Homo sapiens), Q9NZ08; recombinant ERAP1, Leu-AMC fluorescence, 60 min; hit rate 0.15% among 340,000;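 active means mean replicate inhibition of at least 30%, or all replicates individually reaching that 30% level; inactive means mean below 30% and not every replicate reaching it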;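 further: 0% = neutral control wells and 100% = L-leucinethiol positive control wells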
The depositor's hits bear a star; · = not tested or not shown. A selection: hits, their analogues and other compounds. The true share with any hit is near 1.3%.

Compound	UUG fidelity	ARNT TACC3 PPI	MLL AF4-AF9 inh	E-selectin induc	ERAP1 inh	S100A4 MyoIIA
COc1ccc(C(=O)N(C)C2(C)CCS(=O)(=O)C2)cc1OC (stereo not drawn)	·	-6	-44	0	3	184*
COc1ccc2c(c1OC)C(=O)OC2	0	0	-3	·	-2	-1
COc1ccc2c3c(cccc13)C(=O)CC2	·	16	0	0	3	166*
COc1ccc(S(=O)(=O)Nc2ccc3c(c2)C(=O)N([C@@H](C)CO)C[C@H](C)[C@@H](CN(C)S(=O)(=O)c2ccc(C)cc2)O3)cc1	-18	29	-9	0	-1	-45
Cc1cc(NC(=O)CSc2nnc(CNC(=O)c3cccc(C(F)(F)F)c3)o2)no1	-24	46*	-2	0	-3	0
COc1cccc2sc(N(CCCN(C)C)C(=O)c3ccc(S(=O)(=O)N4CCc5ccccc5C4)cc3)nc12	14	19	29*	0	1	-1
CN(C)CCN(C(=O)c1ccc2ccccc2c1)c1nc2cc3c(cc2s1)OCCO3	2	17	50*	·	2	-10
CN(C)CCN(C(=O)c1ccc(N2C(=O)CCC2=O)cc1)c1nc2cc3c(cc2s1)OCO3	-12	4	·	0	·	0
CN(C)CCN(C(=O)c1cccc2ccccc12)c1nc2cc3c(cc2s1)OCO3	1	22	28*	·	-8	11
COc1cc2nc(N(CCCN(C)C)C(=O)c3ccc(S(=O)(=O)N4CCc5ccccc5C4)cc3)sc2cc1OC	11	7	2	0	-4	2
COc1cc2nc(N(CCCN(C)C)C(=O)c3ccc(C(=O)c4ccccc4)cc3)sc2cc1OC	-10	22	28*	·	6	-1
COC(=O)C[C@@H]1CC[C@H]2[C@@H](COc3ccc(NC(=O)c4ccc(OC)cc4)cc3C(=O)N2C)O1	4	-2	-1	0	-1	0
COCC(=O)Nc1ccc2c(c1)C(=O)N(C)C[C@@H](OC)[C@@H](C)CN(CC1CCCCC1)[C@H](C)CO2	-5	4	0	4	1	2
COc1ccc(-c2cnc3c(c2)C(=O)N([C@@H](C)CO)C[C@@H](C)[C@@H](CN(C)C(=O)C2CCCCC2)O3)cc1	·	1	-2	1	2	-12
CN(C)CCCN(C(=O)c1ccc2c(c1)CCCC2)c1nc2ccc(Cl)cc2s1	·	16	27*	0	1	-3
CCOC(=O)N1CCN(S(=O)(=O)c2ccc(C(=O)N(CCCN(C)C)c3nc4ccc(Cl)cc4s3)cc2)CC1	-14	-1	4	·	2	6
CN(C)CCCN(C(=O)c1ccc2ccccc2c1)c1nc2cc3c(cc2s1)OCO3	-19	-1	33*	0	-1	-1
C[C@@H]1CCCCO[C@@H](CN(C)CC2CCCCC2)[C@@H](C)CN([C@H](C)CO)C(=O)c2cc(NC(=O)Nc3ccc(F)cc3)ccc2O1	7	16	3	0	-1	-34
C[C@@H]1CN([C@H](C)CO)C(=O)Cc2cc(NC(=O)C3CC3)ccc2O[C@@H]1CN(C)Cc1ccc2c(c1)OCO2	-6	-3	-2	29*	-5	-2
C[C@@H]1CN([C@H](C)CO)C(=O)Cc2cc(NC(=O)CCN3CCOCC3)ccc2O[C@H]1CN(C)Cc1ccc2c(c1)OCO2	28	-8	-5	·	6	123*
C[C@@H]1CN([C@H](C)CO)C(=O)Cc2cc(NC(=O)CCN3CCOCC3)ccc2O[C@@H]1CN(C)Cc1ccc2c(c1)OCO2	-2	·	3	·	-6	14
C[C@H]1CCCCO[C@H](CN(C)C(=O)c2ccccc2)[C@@H](C)CN([C@@H](C)CO)C(=O)c2cc(NC(=O)Nc3ccc(C(F)(F)F)cc3)ccc2O1	-5	-18	0	5	-2	-3
Cc1ccc(S(=O)(=O)N(C)C[C@H]2Oc3ccc(NC(=O)CCCN(C)C)cc3CC(=O)N([C@H](C)CO)C[C@H]2C)cc1	5	5	2	1	1	3
CO[C@@H]1CN(C)C(=O)c2ccc(NC(=O)C3CC3)cc2OC[C@H](C)N(CCC(F)(F)F)C[C@H]1C	-8	-9	2	0	3	8
Nc1cc2c(cc1Cl)-c1ccccc1C2	1	-2	50*	1	-2	-4
COc1ccccc1NC(=O)N[C@H]1C=C[C@H](CC(=O)N2CCC(Cc3ccccc3)CC2)O[C@@H]1CO	39	8	-11	-1	3	103*
COc1ccccc1NC(=O)N[C@@H]1C=C[C@H](CC(=O)N2CCC(Cc3ccccc3)CC2)O[C@@H]1CO	21	0	0	-1	4	-2
Cc1nc2ccccc2nc(=O)c1NNc1ccccc1	·	0	3	·	12	1
Cc1ccc2nc(=O)c(NNc3ccccc3)cnc2c1	·	5	2	178*	9	0
CO[C@@H]1CN(C)C(=O)c2ccc(NS(=O)(=O)c3cn(C)cn3)cc2OC[C@H](C)NC[C@H]1C	·	-3	-2	0	·	0

Single records, as listed above. Values in the order: UUG fidelity | ARNT TACC3 PPI | MLL AF4-AF9 inh | E-selectin induc | ERAP1 inh | S100A4 MyoIIA
Listed for `CO[C@@H]1CN(C)C(=O)c2ccc(NC(=O)C3CC3)cc2OC[C@H](C)N(CCC(F)(F)F)C[C@H]1C` → -8 | -9 | 2 | 0 | 3 | 8
Listed for `COc1ccc(S(=O)(=O)Nc2ccc3c(c2)C(=O)N([C@@H](C)CO)C[C@H](C)[C@@H](CN(C)S(=O)(=O)c2ccc(C)cc2)O3)cc1` → -18 | 29 | -9 | 0 | -1 | -45
Listed for `CN(C)CCN(C(=O)c1ccc(N2C(=O)CCC2=O)cc1)c1nc2cc3c(cc2s1)OCO3` → -12 | 4 | · | 0 | · | 0

Next section.
Compound	UUG fidelity	ARNT TACC3 PPI	MLL AF4-AF9 inh	E-selectin induc	ERAP1 inh	S100A4 MyoIIA
CN(C)N1C(N)=C(C#N)C(c2cccc(Cl)c2)C2=C1CCCC2=O (stereo not drawn)	-3	7	7	0	3	1
CN(C)N1C(N)=C(C#N)C(c2ccc3c(c2)OCO3)C2=C1CCCC2=O (stereo not drawn)	9	-7	26*	·	6	-13
O=C(NCCN1CCNCC1)c1ccccc1O	-6	·	5	·	·	-3
c1ccc(CNCCN2CCNCC2)nc1	-16	66*	·	·	·	·
COc1ccc(S(=O)(=O)Nc2ccc3c(c2)C(=O)N([C@H](C)CO)C[C@@H](C)[C@@H](CN(C)CC2CC2)O3)cc1	0	14	-7	0	7	7
CC(=NNc1ccc2ccccc2n1)c1ccccn1	·	·	20	0	-2	-2
COc1ccc2nc(NN=C(C)c3ccccn3)cc(C)c2c1	·	70*	7	1	7	-16
O=C(N[C@@H]1CC[C@@H](CCn2cc(-c3ccccc3F)nn2)O[C@H]1CO)c1ccc2c(c1)OCO2	·	-3	-21	0	8	-2
Cc1ccc(-c2csc(NC(=O)CSc3nc4ccccc4c(=O)n3CCCN(C)C)n2)cc1	·	-18	36*	·	-4	1
Cc1ccc(S(=O)(=O)N2CCOCC2)cc1C(=O)NC1CCCC1	-13	-5	7	31*	-4	-13
Cc1ccc(S(=O)(=O)N2CCOCC2)cc1C(=O)NC1CCCCC1	-7	25	·	·	·	·

Quoted from the listing:
Value for O=C(NCCN1CCNCC1)c1ccccc1O under MLL AF4-AF9 inh: 5
Value for CN(C)N1C(N)=C(C#N)C(c2cccc(Cl)c2)C2=C1CCCC2=O (stereo not drawn) under UUG fidelity: -3

High-throughput results as filed in PubChem.
